Tested on: human A549 lung cancer cells
Assay: Assay of cell viability with two drugs (kinase inhibitor + ptRNase), A549
Assay type: cell-based
Conditions: two-drug combination with ptRNase
Protocol: We measured cell viability with a tetrazolium dye-based assay for metabolic activity.
We used the EC50 values obtained from single-drug treatment (Table 1) to design subsequent drug combination experiments. Two-drug combination experiments were performed using a 5×5 matrix to interrogate 25 concentration ratios per combination.
The EC50 values obtained from single-drug cell viability assays were used to design subsequent drug combination experiments. Two-drug combination experiments were performed by using a 5×5 matrix in 96-well plates to interrogate 25 dosing pairs. Cells in complete growth medium were plated at 5,000 cells per well in a 96-well microplate, which was incubated for 24 h at 37° C. […] After 48 h, cell viability was evaluated as described above.
The dose-effect curve for each drug was determined based on experimental observations and was compared to the effect afforded by the two-drug combination to derive a CI value. The CI values for all combinations were calculated using CalcuSyn 2.0 from Biosoft (Cambridge, UK). […] Each CI value was the mean of the results from 3 biological replicates.

C[C@@H](Oc1cc(-c2cnn(C3CCNCC3)c2)cnc1N)c1c(Cl)ccc(F)c1Cl [Crizetinib] was tested, and the “Synergism with ptRNase?” value was “No”.

Reference: patent US12195771B2, “Combination chemotherapy for the treatment of cancer” (WISCONSIN ALUMNI RESEARCH FOUNDATION, priority 2017, dated 2025)
